The results in this text go back to patent US9150578B2, “5,8-dihydro-6H-pyrazolo[3,4-h]quinazolines as IGF-1R/IR inhibitors” (Boehringer Ingelheim International GmbH, priority 2012, dated 2015).

For the assay, the system named is TC-71 (Ewing's sarcoma) cells. The assay can be described thus: Cell proliferation assay, TC-71 (Alamar Blue). It is filed as cell-based. Conditions: TC-71 cells, 72 h, read-out: TC71 EC50 range. On the procedure:
Cell Proliferation Assays
Published scientific data has described that interference with the Insulin-like Growth Factor-1 Receptor (IGF-1R) signaling pathway reduces the proliferation of TC-71 cells. Therefore TC-71 cells served as a positive control cell line for monitoring the activity of compounds against IGF-1R-mediated cell proliferation.
2000 TC-71 cells or 1000 HCT 116 cells were seeded per well in 180 μL IMDM+10% foetal calf serum (FCS)+penicillin/streptomycin into 96-well microtitre plates. The plates were placed in a cell culture incubator (37° C. in a humidified atmosphere of 95% […]/5 CO2) overnight. The following day, serial dilutions of compounds, prepared in duplicates, were transferred onto the cell layers (controls without compound). The cells were cultivated for a further 72 h in the cell culture incubator. 20 μL of Alamar Blue™ (Serotec Ltd, Düsseldorf, Germany) was added to each well and the plates incubated for 7 h in the cell culture incubator.
A general note: Resazurin is reduced to fluorescent resorufin, in cell work by metabolically active cells.
Broadly, the EC50 is the midpoint of the concentration-response curve. On to `Cn1cc(-c2ccc(-c3c4c(nn3C)CCc3cnc(Nc5ccn(CC(=O)N6CCOCC6)n5)nc3-4)cc2)cn1` [I-144], for which the half-maximal effective concentration (EC50) was below 10 nM.

Regarding `CCn1ccc(Nc2ncc3c(n2)-c2c(nn(C)c2Cc2cccc(-c4cnn(Cc5ccccc5)c4)c2)CC3)n1` [I-088], the EC50 is below 10 nM.

Take `CCn1ccc(Nc2ncc3c(n2)-c2c(nn(C)c2Cc2cccc(-c4cnn(CC(C)C)c4)c2)CC3)n1` [I-089]: the EC50 is below 10 nM.

On to `Cn1cc(-c2ccc(-c3c4c(nn3C)CCc3cnc(Nc5cnn(Cc6ccncc6)c5)nc3-4)cc2)cn1` [I-026], for which the half-maximal effective concentration (EC50) was below 10 nM.

For the compound `Cn1cc(-c2cccc(Cc3c4c(nn3C)CCc3cnc(Nc5ccn(CCCN6CCCC6)n5)nc3-4)c2)cn1` [I-035], the EC50 was below 10 nM.

With `CCn1cc(-c2ccc(-c3c4c(nn3C)CCc3cnc(Nc5ccn(CC(=O)N(C)C)n5)nc3-4)cc2)cn1` [I-095], the half-maximal effective concentration (EC50) is below 10 nM.

Take `CCn1ccc(Nc2ncc3c(n2)-c2c(nn(C)c2-c2ccc(-c4c[nH]nc4C)cc2)CC3)n1` [I-068]: the EC50 lay in the range of 10 to 100 nM.

As for `CC(C)n1cc(-c2ccc(-c3c4c(nn3C)CCc3cnc(Nc5cnn(CC(=O)N(C)C)c5)nc3-4)cc2)cn1` [I-079], the EC50 is below 10 nM.

Consider `CN(C)CCn1cc(Nc2ncc3c(n2)-c2c(nn(C)c2-c2ccc(-c4cnn(C)c4)nc2)CC3)cn1` [I-184], for which the EC50 is 10 to 100 nM.

Turning to `CN(C)CCn1ccc(Nc2ncc3c(n2)-c2c(nn(C)c2-c2ccc(-c4cnn(C)c4)cc2)CC3)n1` [I-070], the EC50 was below 10 nM.

`Cn1cc(-c2ccc(-c3c4c(nn3C)CCc3cnc(Nc5ccn(CC(C)(C)O)n5)nc3-4)cc2)cn1` [I-028]: the EC50 was below 10 nM.

For `CN(C)CCCNC(=O)Cn1ccc(Nc2ncc3c(n2)-c2c(nn(C)c2-c2ccc(-c4cnn(C)c4)cc2)CC3)n1` [I-142], the EC50 was 10 to 100 nM.

In the case of `COCCn1cc(-c2ccc(-c3c4c(nn3C)CCc3cnc(Nc5ccc(C(=O)O)cc5OC)nc3-4)cc2)cn1` [I-126], the EC50 was below 10 nM.

With `COCCN1CCC(NC(=O)c2ccc(Nc3ncc4c(n3)-c3c(nn(C)c3Cc3cccc(-c5cnn(C)c5)c3)CC4)c(OC)c2)CC1` [I-147], the EC50 was below 10 nM.

With `CN(C)C(=O)CCCn1ccc(Nc2ncc3c(n2)-c2c(nn(C)c2Cc2cccc(-c4cnn(C)c4)c2)CC3)n1` [I-039], the EC50 is below 10 nM.

On to `CNC(=O)Cn1ccc(Nc2ncc3c(n2)-c2c(nn(C)c2-c2ccc(-c4cnn(C)c4)cc2)CC3)n1` [I-138], for which the EC50 was below 10 nM.

For `CN(C)C(=O)Cn1ccc(Nc2ncc3c(n2)-c2c(nn(C)c2-c2ccc(-c4cnn(CCN5CCOCC5)c4)cc2)CC3)n1` [I-099], the EC50 was below 10 nM.

Turning to `Cn1ccc(Nc2ncc3c(n2)-c2c(nn(C)c2Cc2cccc(-c4cn[nH]c4)c2)CC3)n1` [I-106], the EC50 was below 10 nM.

With `COc1cc(C(=O)N(C)C2CCN(C)CC2)ccc1Nc1ncc2c(n1)-c1c(nn(C)c1-c1ccc(-c3cnn(C)c3)cc1)CC2` [I-161], the half-maximal effective concentration (EC50) was below 10 nM.

Turning to `Cc1cc(Nc2ncc3c(n2)-c2c(nn(C)c2-c2ccc(-c4cnn(C(C)C)c4)cc2)CC3)nn1C` [I-007], the EC50 is below 10 nM.

Regarding `CCn1ccc(Nc2ncc3c(n2)-c2c(nn(C)c2Cc2cccc(-c4cnn(C)c4)c2)CC3)n1` [I-077], the EC50 is below 10 nM.

Turning to `CCCNC(=O)c1ccc(Nc2ncc3c(n2)-c2c(nn(C)c2-c2ccc(-c4cnn(C)c4)cc2)CC3)c(OC)c1` [I-158], the concentration giving a half-maximal response (EC50) is below 10 nM.

Consider `COCCNC(=O)Cn1ccc(Nc2ncc3c(n2)-c2c(nn(C)c2-c2ccc(-c4cnn(C)c4)cc2)CC3)n1` [I-140], for which the concentration for a half-maximal effect (EC50) fell in the range of 10 to 100 nM.

On to `CC(C)n1cc(-c2ccc(-c3c4c(nn3C)CCc3cnc(Nc5ccn(CCN(C)C)n5)nc3-4)cc2)cn1` [I-021], for which the 50% effective concentration (EC50) was below 10 nM.

As for `CCn1ccc(Nc2ncc3c(n2)-c2c(nn(C)c2Cc2cccc(-c4cnn(CCOC)c4)c2)CC3)n1` [I-074], the half-maximal effective concentration (EC50) was below 10 nM.

On to `Cn1cc(Nc2ncc3c(n2)-c2c(nn(C)c2-c2ccc(-c4cnn(C)c4)cc2)CC3)cn1` [I-010], for which the EC50 is below 10 nM.

On to `CCn1cc(Nc2ncc3c(n2)-c2c(nn(C)c2-c2ccc(-c4cnn(C)c4)nc2)CC3)cn1` [I-187], for which the EC50 is below 10 nM.

For the compound `CCCn1cc(-c2ccc(-c3c4c(nn3C)CCc3cnc(Nc5ccn(CC)n5)nc3-4)cc2)cn1` [I-056], the EC50 is below 10 nM.

Consider `COCCn1cc(-c2cccc(Cc3c4c(nn3C)CCc3cnc(Nc5ccn(C)n5)nc3-4)c2)cn1` [I-107], for which the EC50 is below 10 nM.

For the compound `Cn1ccc(Nc2ncc3c(n2)-c2c(nn(C)c2Cc2cccc(-c4cnn(CCO)c4)c2)CC3)n1` [I-110], the concentration giving a half-maximal response (EC50) is below 10 nM.
